Experimental data as given in patent publication US20110020272A1, “COMBINATION THERAPY FOR TREATING HEPATITIS VIRAL INFECTION” (priority 2009, published 2011).

System: HCV replicon (Con-1) in Huh-7 Luc-ubi-neo/ET replicon cells
Assay: Luciferase reporter assay, treatment protocols I to VI, Huh-7 Luc-ubi-neo/ET replicon cells

O=C1CN(N=C[C@H](Cc2ccccc2)NC(=O)[C@H](Cc2c[nH]c3ccccc23)NC(=O)[C@H](Cc2c[nH]c3ccccc23)NC(=O)OCc2ccccc2)C(=O)N1 [S-2209, S,S,S-[1-[1-[1-Benzyl-2-(2,4-dioxo-imidazolidin-1-ylimino)-ethylcarbamoyl]-2-(1H-indol-3-yl)-ethylcarbamoyl]-2-(1H-indol-3-yl)-ethyl]-carbamic acid benzyl ester]
effect on viral propagation, protocol III: markedly enhanced effect in lowering viral propagation | effect on replication, protocol I versus protocol II (1.85 μM S-2209 24 h first, then IFN-a 0.75 IU/ml / RbV 25 μM 24 h (protocol I) vs reverse order (protocol II)): indistinguishable from the effect of the reverse treatment | effect on replication, triple treatment (protocol VI) (three 24 h treatments with proteasome inhibitor and IFNa or IFN-a/RbV): most pronounced effect
